Literature values, collected in patent US20140179779A1, “Deuterium Substituted Fumarate Derivatives” (Biogen IDEC MA Inc., priority 2012, published 2014).

Tested on: ALS
Conditions: ALS patients; cited from earlier work

Question: For `Nc1nc2ccc(OC(F)(F)F)cc2s1` [Rilutek (riluzole), riluzole], which extension of survival is on record?
Answer: approximately 3 months
